Measurements reported in patent publication US10471127B2, “Peptide pharmaceuticals for insulin resistance” (Mederis Diabetes, LLC, priority 2011, dated 2019).

Amino acid sequences for entries named in this document (tags omitted). Residues count along the entry.
UniProt P43220, 24-463 limits assumed: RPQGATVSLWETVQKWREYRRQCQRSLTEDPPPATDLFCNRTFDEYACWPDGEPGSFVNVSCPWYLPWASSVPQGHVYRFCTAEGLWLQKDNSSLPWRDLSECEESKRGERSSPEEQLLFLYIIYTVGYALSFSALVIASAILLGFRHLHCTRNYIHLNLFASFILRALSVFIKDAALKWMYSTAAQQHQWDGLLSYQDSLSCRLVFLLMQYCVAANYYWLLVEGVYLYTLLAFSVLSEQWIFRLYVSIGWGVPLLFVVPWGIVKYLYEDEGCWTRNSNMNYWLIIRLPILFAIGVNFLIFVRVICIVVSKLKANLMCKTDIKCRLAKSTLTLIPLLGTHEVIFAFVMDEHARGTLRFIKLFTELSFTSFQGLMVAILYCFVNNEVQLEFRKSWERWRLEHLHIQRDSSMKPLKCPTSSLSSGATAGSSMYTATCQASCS

target: GLP-1 R (UniProt P43220); assay: GLP-1 cellular assay, stimulation of cAMP levels (Cerep SA); type: cell-based; conditions: read-out: EC50 GLP-1 R; cAMP generated in cells; n.c. means EC50 not calculable

Row | SMILES | EC50 [nM]
1 | CCCCCCCCCCCCO[C@@H]1O[C@H](C(=O)NCCCC[C@H](NC(=O)C(C)(C)NC(=O)[C@H](CC(=O)O)NC(=O)[C@H](CC(C)C)NC(=O)[C@H](Cc2ccc(O)cc2)NC(=O)[C@H](CCCCN)NC(=O)[C@H](CO)NC(=O)[C@H](Cc2ccc(O)cc2)NC(=O)[C@H](CC(=O)O)NC(=O)[C@H](CO)NC(=O)[C@@H](NC(=O)[C@](C)(Cc2ccccc2)NC(=O)[C@@H](NC(=O)CNC(=O)[C@H](CCC(N)=O)NC(=O)C(C)(C)NC(=O)[C@@H](N)Cc2c[nH]cn2)[C@@H](C)O)[C@@H](C)O)C(N)=O)[C@@H](O)[C@H](O)[C@H]1O | 420
2 | CCCCCCCCCCCCO[C@@H]1O[C@H](C(=O)NCCCC[C@H](NC(=O)[C@H](CCCNC(=N)N)NC(=O)[C@@H]2CCC(=O)NCCCC[C@H](NC(=O)[C@H](CO)NC(=O)[C@H](Cc3ccc(O)cc3)NC(=O)[C@H](CC(=O)O)NC(=O)[C@H](CO)NC(=O)[C@@H](NC(=O)[C@H](Cc3ccccc3)NC(=O)[C@@H](NC(=O)CNC(=O)[C@H](CCC(N)=O)NC(=O)C(C)(C)NC(=O)[C@@H](N)Cc3c[nH]cn3)[C@@H](C)O)[C@@H](C)O)C(=O)N[C@@H](Cc3ccc(O)cc3)C(=O)N[C@@H](CC(C)C)C(=O)N[C@@H](CC(=O)O)C(=O)N2)C(=O)NC(C)(C)C(N)=O)[C@@H](O)[C@H](O)[C@H]1O | 3000
3 | CCCCCCCCCCCCO[C@@H]1O[C@H](C(=O)NCCCC[C@H](NC(=O)[C@H](CCC(N)=O)NC(=O)C(C)(C)NC(=O)[C@H](CC(=O)O)NC(=O)[C@H](CC(C)C)NC(=O)[C@H](Cc2ccc(O)cc2)NC(=O)[C@H](CCCCN)NC(=O)[C@H](CO)NC(=O)[C@H](Cc2ccc(O)cc2)NC(=O)[C@H](CC(=O)O)NC(=O)[C@H](CO)NC(=O)[C@@H](NC(=O)[C@H](Cc2ccccc2)NC(=O)[C@@H](NC(=O)CNC(=O)[C@H](CCC(N)=O)NC(=O)C(C)(C)NC(=O)[C@@H](N)Cc2c[nH]cn2)[C@@H](C)O)[C@@H](C)O)C(=O)NC(C)(C)C(N)=O)[C@@H](O)[C@H](O)[C@H]1O | 270
